Test system: RAF
Experiment: Biochemical inhibition profile, RAF
Set-up: species or system Human
Details: read-out: Biochemical Inhibition Profile IC50, RAF

Question: CNC(=O)c1cc(Oc2ccc(NC(=O)Nc3ccc(Cl)c(C(F)(F)F)c3)cc2)ccn1 [Sorafenib] was tested. Which IC50 did it give?
Answer: Its IC50 is 19.5 nM.
